Assay results published in US10695436B2, “Non-cleavable polymer conjugated with alpha V beta 3 integrin thyroid antagonists” (NANOPHARMACEUTICALS, LLC, priority 2016, dated 2020).

Assay: Solubility of P-bi-TAT
Assay type: physicochemical
Protocol: Chemical Name: O,O′-Bis({4-[3,5-diiodo-4-(1-methylen-1,2,3-triazol-4-ylmethoxy)phenoxy]-3,5-diiodophenyl}acetic acid) polyethylene glycol. Physical Appearance: Yellowish brown powder Solubility: Soluble in water at 50 mg/ml; in Phosphate buffer, pH 8.0 at 100 mg/ml; in 10% Ethanol at 150 mg/ml, and in 50% propylene glycol at 200-300 mg/ml.

**Q.** Which “Solubility in 10% Ethanol” value (10% Ethanol) does the source give for “O,O′-Bis({4-[3,5-diiodo-4-(1-methylen-1,2,3-triazol-4-ylmethoxy)phenoxy]-3,5-diiodophenyl}acetic acid) polyethylene glycol [P-bi-TAT]” here?
**A.** Its value is 150 mg/mL.

**Q.** And the “Solubility in 50% propylene glycol” value (50% propylene glycol)?
**A.** Its value is 200 to 300 mg/mL.

**Q.** What about the “Solubility in Phosphate buffer, pH 8.0” value (Phosphate buffer, pH 8.0) of the same substance?
**A.** The value was 100 mg/ml.

**Q.** And the Solubility in water (water)?
**A.** The Solubility in water was 50 mg/mL.
